Experimental data from US20230101403A1, “METHOD OF TREATING OR AMELIORATING CANCERS DRIVEN BY RECEPTOR TYROSINE KINASE FUSION ONCOGENES, AND COMPOSITIONS FOR THE SAME” (THE TRUSTEES OF THE UNIVERSITY OF PENNSYLVANIA, priority 2021, published 2023).

System: ppErk, Beas2B cells expressing EML4-ALK(V1)
Format: cell-based
Conditions: Beas2B transiently expressing EML4-ALK; pre-incubation 1 μM; EGF

With C[C@@H](Oc1cc(-c2cnn(C3CCNCC3)c2)cnc1N)c1c(Cl)ccc(F)c1Cl [crizotinib] the “EML4-ALK-induced suppression of EGFR signaling (ppErk)” value was “reversed EML4-ALK-induced suppression of EGFR signaling”.
